Measurements as given in patent publication US9073876B2, “Flap modulators” (JANSSEN PHARMACEUTICA NV, priority 2013, dated 2015).

Sequences of proteins named here, by UniProt entry; tags and fusion partners are left off. A change or cut given only in a name is not applied to a line headed by its entry.
UniProt P20292: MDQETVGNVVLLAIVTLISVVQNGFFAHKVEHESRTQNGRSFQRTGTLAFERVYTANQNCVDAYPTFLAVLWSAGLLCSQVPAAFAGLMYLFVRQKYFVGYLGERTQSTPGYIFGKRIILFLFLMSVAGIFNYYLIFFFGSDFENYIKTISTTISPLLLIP

target: human FLAP (Homo sapiens (Human), UniProt P20292); assay: FLAP binding assay (HTRF); conditions: human FLAP-containing membranes, HTRF format; average of two assay plates, duplicates; read-out: FLAP Binding wild type HTRF Ki
Method: The ability of the compounds of the present invention to treat a FLAP-mediated disease and/or disorder, or associated symptoms or complications thereof, was determined using the following procedures. Binding assay data represent the average value obtained from two different assay plates, with samples run in duplicate on each plate. Human whole blood assay data represent a single replicate on an assay plate using whole blood from at least one healthy donor.
Data are expressed as a HTRF ratio.

| SMILES | Ki [nM] |
| --- | --- |
| Nc1cnc(-c2ccc(C3CCC3)c(OCC(O)CNc3ccn[nH]3)c2F)cn1 (racemic) [Example 67, racemic 1-((1H-Pyrazol-5-yl)amino)-3-(3-(5-aminopyrazin-2-yl)-6-cyclobutyl-2-fluorophenoxy)propan-2-ol] | 176 |
| CC(C)CNCC(O)COc1c(C2CCC2)ccc(-c2cnc(N)cn2)c1F (racemic) [Example 253, 1-(3-(5-aminopyrazin-2-yl)-6-cyclobutyl-2-fluorophenoxy)-3-(isobutylamino)-propan-2-ol] | 854 |
| CS(=O)(=O)c1cc(Cl)ccc1COc1c(C2CCC2)ccc(-c2cnc(N)cn2)c1F [Example 11, 5-(3-{[4-Chloro-2-(methylsulfonyl)benzyl]oxy}-4-cyclobutyl-2-fluorophenyl)pyrazin-2-amine] | 750 |
| Nc1cnc(-c2ccc(C3CCC3)c(OCc3cccc(Cl)c3Cl)c2F)cn1 [Example 39, 5-{4-Cyclobutyl-3-[(2,3-dichlorobenzyl)oxy]-2-fluorophenyl}pyrazin-2-amine] | 750 |
| Nc1cnc(-c2ccc(C3CCC3)c(OCc3nc(C4CC4)no3)c2F)cn1 [Example 48, 5-{4-Cyclobutyl-3-[(3-cyclopropyl-1,2,4-oxadiazol-5-yl)methoxy]-2-fluorophenyl}pyrazin-2-amine] | 12 |
| CC(C)(C)OC(=O)N1CCC(COc2c(C3CCC3)ccc(-c3cnc(N)cn3)c2F)CC1 [Example 74, tert-Butyl 4-{[3-(5-aminopyrazin-2-yl)-6-cyclobutyl-2-fluorophenoxy]methyl}piperidine-1-carboxylate] | 750 |
| CS(=O)(=O)c1ccc(Oc2c(C3CCC3)ccc(-c3cnc(N)cn3)c2F)cc1 [Example 116, 5-{4-Cyclobutyl-2-fluoro-3-[4-(methylsulfonyl)phenoxy]phenyl}pyrazin-2-amine] | 14.6 |
| CC(C)(C)c1ccc(-c2cnc(N)cn2)c(F)c1Oc1cc(N)ncn1 [Example 202, 6-[3-(5-Aminopyrazin-2-yl)-6-tert-butyl-2-fluorophenoxy]pyrimidin-4-amine] | 6.1 |
| COc1cc(Oc2c(C3CCC3)ccc(-c3cnc4[nH]ccc4c3)c2F)ncn1 [Example 228, 5-(4-cyclobutyl-2-fluoro-3-((6-methoxypyrimidin-4-yl)oxy)phenyl)-1H-pyrrolo[2,3-b]pyridine] | 24.4 |
| CC(C)(C)OC(=O)N1CCC(COc2c(C3CCC3)ccc(-c3cnc(N)cn3)c2F)C1 (stereo not shown) [Example 247, tert-butyl 3-((3-(5-aminopyrazin-2-yl)-6-cyclobutyl-2-fluoro-phenoxy)methyl)pyrrolidine-1-carboxylate] | 259 |
| Nc1cnc(-c2ccc(C3CCC3)c(OCCCC(=O)O)c2F)cn1 [Example 251, 4-(3-(5-Aminopyrazin-2-yl)-6-cyclobutyl-2-fluorophenoxy)butanoic acid] | 1200 |
| Nc1cnc(-c2ccc(C3CCC3)c(Oc3cnc4cc(F)c(F)cc4n3)c2F)cn1 [Example 271, 5-{4-Cyclobutyl-3-[(6,7-difluoroquinoxalin-2-yl)oxy]-2-fluorophenyl}pyrazin-2-amine] | 5.1 |
| Nc1cnc(-c2ccc(C3CCC3)c(Oc3nc4ncccc4s3)c2F)cn1 [Example 330, 5-(4-Cyclobutyl-2-fluoro-3-(thiazolo[4,5-b]pyridin-2-yloxy)phenyl)pyrazin-2-amine] | 5.1 |

Further compounds by falling Ki, results first:

| Ki [nM] | SMILES |
| --- | --- |
| 750 | Nc1cnc(-c2ccc(C3CCC3)c(OCc3ccccc3OC(F)(F)F)c2F)cn1 [Example 8, 5-(4-Cyclobutyl-2-fluoro-3-{[2-(trifluoromethoxy)benzyl]oxy}phenyl)-pyrazin-2-amine] |
| 750 | CS(=O)(=O)N1CCC(COc2c(C3CCC3)ccc(-c3cnc(N)cn3)c2F)CC1 [Example 68, 5-(4-Cyclobutyl-2-fluoro-3-{[1-(methylsulfonyl)piperidin-4-yl]methoxy}phenyl)pyrazin-2-amine] |
| 750 | COc1c(C2CCC2)ccc(-c2cc3cc[nH]c3nn2)c1F [Example 197, 3-(4-cyclobutyl-2-fluoro-3-methoxyphenyl)-7H-pyrrolo[2,3-c]pyridazine] |
| 180 | N#Cc1nc(-c2ccc(C3CCC3)c(O)c2F)cnc1N [Example 222, 3-amino-6-(4-cyclobutyl-2-fluoro-3-hydroxyphenyl)pyrazine-2-carbonitrile] |
| 116 | Nc1cnc(-c2ccc(C3CCC3)c(OCC(O)Cn3cccn3)c2F)cn1 (racemic) [Example 60, racemic 1-(3-(5-Aminopyrazin-2-yl)-6-cyclobutyl-2-fluorophenoxy)-3-(1H-pyrazol-1-yl)propan-2-ol] |
| 18.7 | COc1c(C2CCC2)ccc(-c2cnc3c(c2)CCN3)c1F [Example 198, 5-(4-cyclobutyl-2-fluoro-3-methoxyphenyl)-2,3-dihydro-1H-pyrrolo[2,3-b]pyridine] |
| 18 | N#Cc1cnn(CC(O)COc2c(C3CCC3)ccc(-c3cnc(N)cn3)c2F)c1N (racemic) [Example 65, racemic 5-Amino-1-(3-(3-(5-aminopyrazin-2-yl)-6-cyclobutyl-2-fluorophenoxy)-2-hydroxypropyl)-1H-pyrazole-4-carbonitrile] |
| 17.2 | N#Cc1ccc(Oc2c(C3CCC3)ccc(-c3cnc(N)cn3)c2F)nc1 [Example 114, 6-[3-(5-Aminopyrazin-2-yl)-6-cyclobutyl-2-fluorophenoxy]pyridine-3-carbonitrile] |
| 4.1 | NC(=O)c1ccc(Oc2c(C3CCC3)ccc(-c3cnc(N)cn3)c2F)cc1 [Example 155, 4-[3-(5-Aminopyrazin-2-yl)-6-cyclobutyl-2-fluorophenoxy]benzamide] |
